Chains of the proteins cited; added tags and fusions are not shown. Lines headed by an entry give the natural chain unless they say otherwise; changes in a name come on top. Residues count along the entry.
UniProt P28335, 33-458 limits assumed: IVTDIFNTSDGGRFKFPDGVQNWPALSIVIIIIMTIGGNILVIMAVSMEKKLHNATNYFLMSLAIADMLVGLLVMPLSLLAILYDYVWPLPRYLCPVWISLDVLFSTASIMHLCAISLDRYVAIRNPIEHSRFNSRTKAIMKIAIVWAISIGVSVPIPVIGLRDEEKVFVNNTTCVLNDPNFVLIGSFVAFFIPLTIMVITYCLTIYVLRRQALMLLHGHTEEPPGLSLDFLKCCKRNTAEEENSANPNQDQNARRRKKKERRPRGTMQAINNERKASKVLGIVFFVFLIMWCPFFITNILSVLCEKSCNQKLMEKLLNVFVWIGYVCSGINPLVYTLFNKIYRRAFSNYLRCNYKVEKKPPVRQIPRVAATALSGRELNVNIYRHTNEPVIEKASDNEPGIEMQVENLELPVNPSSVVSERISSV
UniProt P28223, whole entry: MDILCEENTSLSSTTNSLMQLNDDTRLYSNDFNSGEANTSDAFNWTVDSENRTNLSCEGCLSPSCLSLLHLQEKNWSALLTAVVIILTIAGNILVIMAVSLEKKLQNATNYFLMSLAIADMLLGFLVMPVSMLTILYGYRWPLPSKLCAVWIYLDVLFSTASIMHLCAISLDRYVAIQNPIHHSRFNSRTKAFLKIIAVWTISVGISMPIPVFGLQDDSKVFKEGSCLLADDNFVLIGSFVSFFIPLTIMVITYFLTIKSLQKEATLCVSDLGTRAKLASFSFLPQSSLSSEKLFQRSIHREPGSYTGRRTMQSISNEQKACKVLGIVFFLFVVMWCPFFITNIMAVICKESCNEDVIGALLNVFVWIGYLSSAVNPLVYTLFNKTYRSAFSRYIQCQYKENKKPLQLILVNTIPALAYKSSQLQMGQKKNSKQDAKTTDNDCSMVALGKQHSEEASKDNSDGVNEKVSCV
UniProt P14416, whole entry: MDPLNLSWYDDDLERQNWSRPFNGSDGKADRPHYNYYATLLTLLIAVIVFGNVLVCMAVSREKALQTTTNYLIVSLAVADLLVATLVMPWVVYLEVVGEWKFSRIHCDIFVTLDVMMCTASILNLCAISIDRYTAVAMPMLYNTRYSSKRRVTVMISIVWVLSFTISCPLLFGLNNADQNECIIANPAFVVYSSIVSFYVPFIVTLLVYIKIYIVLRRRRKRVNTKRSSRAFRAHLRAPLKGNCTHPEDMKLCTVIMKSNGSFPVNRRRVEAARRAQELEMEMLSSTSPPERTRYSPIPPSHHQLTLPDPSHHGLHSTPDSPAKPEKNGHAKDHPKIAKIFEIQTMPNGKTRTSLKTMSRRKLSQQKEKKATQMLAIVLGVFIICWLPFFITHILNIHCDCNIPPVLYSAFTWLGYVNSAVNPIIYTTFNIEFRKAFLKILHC

According to US20080214572A1, “Selected Tetracyclic Tetrahydrofuran Derivatives Containing a Cyclic Amine Side Chain” (priority 2005, published 2008):

Assays:
[1] = target: human cloned 5-HT2C receptor, expressed in CHO cells (Homo sapiens, UniProt P28335); experiment: In vitro radioligand binding affinity for 5-HT2C receptor ([3H]mesulergine)
Procedure: (§1) The interaction of the compounds of Formula (I) with 5-HT2A and 5-HT2C receptors was assessed in in vitro radioligand binding experiments. In general, a low concentration of a radioligand with a high binding affinity for the receptor is incubated with a sample of a tissue preparation enriched in a particular receptor (1 to 5 mg tissue) in a buffered medium (0.2 to 5 ml). During the incubation, the radioligands bind to the receptor. When equilibrium of binding is reached, the receptor bound radioactivity is separated from the non-bound radioactivity, and the receptor bound activity is counted. The interaction of the test compounds with the receptors is assessed in competition binding experiments. Various concentrations of the test compound are added to the incubation mixture containing the tissue preparation and the radioligand. Binding of the radioligand will be inhibited by the test compound in proportion to its binding affinity and its concentration. The affinities of the compounds for the 5-HT2 receptors were measured by means of radioligand binding studies conducted with: (a) human cloned 5-HT2A receptor, expressed in L929 cells using [^125I]R91150 as radioligand and (b) human cloned 5-HT2C receptor, expressed in CHO cells using [^3H]mesulergine as radioligand.
(§2) The results are given in Table 3 below in terms of pIC50 values for the respective compounds.

[2] = target: human cloned 5-HT2A receptor, expressed in L929 cells (Homo sapiens, UniProt P28223); experiment: In vitro radioligand binding affinity for 5-HT2A receptor ([125I]R91150)
Procedure: as §1, §2

[3] = target: human Dopamine D2L receptor (Homo sapiens, UniProt P14416); experiment: In vitro binding affinity for human D2L receptor ([3H]Spiperone); conditions: human D2L-transfected CHO cell membranes
Procedure: Frozen membranes of human Dopamine D2L receptor-transfected CHO cells were thawed, briefly homogenized using an Ultra-Turrax T25 homogenizer and diluted in Tris-HCl assay buffer containing NaCl, CaCl2, MgCl2, KCl ([…] respectively, adjusted to pH 7.7 with HCl) to an appropriate protein concentration optimized for specific and non-specific binding. Radioligand [^3H]Spiperone (NEN, specific activity ˜70 Ci/mmol) was diluted in assay buffer at a concentration of 2 nmol/L. Prepared radioligand (50 μl), along with 50 μl of either the 10% DMSO control, Butaclamol (10^−6 mol/l final concentration), or compound of interest, was then incubated (30 min, 37° C.) with 400 μl of the prepared membrane solution. Membrane-bound activity was filtered through a Packard Filtermate harvester onto GF/B Unifilter plates and washed with ice-cold Tris-HCl buffer (50 mM; pH 7.7; 6×0.5 ml). Filters were allowed to dry before adding scintillation fluid and counting in a Topcount scintillation counter. Percentage specific bound and competition binding curves were calculated using S-Plus software (Insightful).
as §2
The values in the Table are pIC50 values and were determined in accordance with the procedure given above for determining D2 affinity.

[4] = tested form: ethanedioate (oxalate) 1:1, racemate, re
[5] = tested form: oxalate (C2H2O4), racemate
[6] = tested form: dioxalate (.2 C2H2O4)

SMILES: Clc1ccc2c(c1)C1OC(CN3CCCC3)CC1c1ccccc1O2 (stereo not drawn)
- 5-HT2C pIC50 [1, 4]: 7.63
- 5-HT2A pIC50 [2, 4]: 7.55
- D2L pIC50 [3, 4]: 7.34

SMILES: OCCN1CCN(CC2CC3c4ccccc4Oc4ccc(Br)cc4C3O2)CC1 (stereo not drawn)
- 5-HT2C pIC50 [1, 5]: 6.40
- 5-HT2A pIC50 [2, 5]: 7.36
- D2L pIC50 [3, 5]: 7.74

SMILES: OCCN1CCN(C[C@@H]2C[C@@H]3c4ccccc4Sc4ccc(F)cc4[C@H]3O2)CC1 (relative stereo)
- 5-HT2C pIC50 ([1]; tested form: oxalate (1:2)): 7.56
- 5-HT2A pIC50 ([2]; tested form: oxalate (1:2)): 8.67
- D2L pIC50 ([3]; tested form: oxalate (1:2)): 8.11

SMILES: Oc1ccc(CN2CCN(C[C@H]3C[C@@H]4c5ccccc5Cc5ccc(F)cc5[C@H]4O3)CC2)cc1
- 5-HT2C pIC50 ([1]; tested form: TFA salt): 7.52
- 5-HT2A pIC50 ([2]; tested form: TFA salt): 7.97
- D2L pIC50 ([3]; tested form: TFA salt): 8.56

SMILES: CC(C)(O)CN1CCN(C[C@H]2C[C@@H]3c4ccccc4Cc4ccc(F)cc4[C@H]3O2)CC1
- 5-HT2C pIC50 ([1]; tested form: oxalate (1:2)): 7.43
- 5-HT2A pIC50 ([2]; tested form: oxalate (1:2)): 8.01
- D2L pIC50 ([3]; tested form: oxalate (1:2)): 7.86

SMILES: Fc1ccc2c(c1)[C@H]1O[C@@H](CN3CCNCC3)C[C@@H]1c1ccccc1C2
- 5-HT2C pIC50 [1, 6]: 7.45
- 5-HT2A pIC50 [2, 6]: 7.57
- D2L pIC50 [3, 6]: 6.97
